The nature of experiment [1]: APR_HepG2_CellCycleArrest_24hr: Apredica 24-hour HepG2 Assay for Cell Cycle Arrest (AID 2282905).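 Further: cell cycle arrest scored as ratio of 2N to 4N nuclear DNA content.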 To be noted: imaging, actives raise or lower the signal. In short, it runs like this: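 Compounds (0.39 to 200 uM, final DMSO 0.5% v/v) are applied to HepG2 cells for 24 hours; cells are then fixed, permeabilized and nuclei labeled with Hoechst 33342. Automated imaging measures DNA content, and activity is fitted in both directions against DMSO.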

Experiment [2] in a line: APR_HepG2_NuclearSize_24hr: Apredica 24-hour HepG2 Assay for Nuclear Size (AID 2282907). To be noted: high-content imaging, actives raise or lower the signal. An outline of the steps: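 Nuclear size is measured by fluorescence high-content imaging of Hoechst-labelled HepG2 nuclei after 24 hr of treatment (0.39–200 uM, 0.5% DMSO). Cells are fixed in 3.7% formaldehyde before staining, and DMSO serves as the baseline for bidirectional curve fitting.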

Experiment [3] is described as follows: APR_HepG2_CellLoss_24hr: Apredica 24-hour HepG2 Assay for Cell Loss (AID 2282908). The settings on record: high-content imaging. In short, it runs like this: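 Nuclear count serves as the viability measure: treated cells are fixed, permeabilized and labelled with Hoechst 33342, and six images per well are analysed to identify valid nuclei. Doses span 0.39–200 uM, and activity in either direction is scored against DMSO.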

Experiment [4] in a line: APR_HepG2_MicrotubuleCSK_24hr: Apredica 24-hour HepG2 Assay for Microtubule CSK Stabilty (AID 2282909). The settings on record: HepG2 microtubule cytoskeleton imaging, actives raise or lower the signal. An outline of the steps:
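Compounds were applied to HepG2 cells for 24 hours across 0.39–200 uM in duplicate, with final DMSO at 0.5% v/v. Fixed, permeabilized cells were labeled for alpha-tubulin and nuclei, and tubulin fluorescence was quantified by imaging, fitted bidirectionally against DMSO.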

Experiment [5] can be described thus: APR_HepG2_MitoticArrest_24hr: Apredica 24-hour HepG2 Assay for Mitotic Arrest (AID 2282910). The settings on record: high-content imaging, actives raise or lower the signal. In short, it runs like this: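 HepG2, 24 hr dosing, 0.39–200 uM, 0.5% DMSO final. Formaldehyde-fixed, Triton-permeabilised, anti-phospho-histone H3 plus Hoechst. ArrayScan imaging at 20x; bidirectional fit vs DMSO baseline.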

The nature of experiment [6]: APR_HepG2_MitoMembPot_24hr: Apredica 24-hour HepG2 Assay for Mitochondrial Membrane Potential (AID 2282911). To be noted: imaging, actives raise or lower the signal. In short, it runs like this:
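HepG2 human liver cells were exposed 24 hr to compounds at 0.39–200 uM (final DMSO 0.5% v/v) in duplicate. MitoTracker Red CMXRos (250 nM, 30 min) was loaded before formaldehyde fixation; fluorescence was imaged by ArrayScan HCS and fitted bidirectionally versus DMSO.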

The nature of experiment [7]: APR_HepG2_MitoMass_24hr: Apredica 24-hour HepG2 Assay for Mitochondrial Mass (AID 2282912). To be noted: high-content imaging, actives raise or lower the signal. An outline of the steps:
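After 24 hr of treatment at 0.39 to 200 uM, HepG2 cells take up 250 nM MitoTracker Red CMXRos for 30 min and are then fixed with 3.7% formaldehyde. Per-well images are quantified, and any change in either direction is scored against solvent.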

A short description of experiment [8]: APR_HepG2_p53Act_24hr: Apredica 24-hour HepG2 Assay for p53 Activation (AID 2282913).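 Further: p53 protein immunofluorescence averaged per cell in HepG2 with Hoechst nuclei.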 To be noted: high-content imaging, actives raise or lower the signal. An outline of the steps: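 HepG2 cells exposed 24 hr to compounds at 0.39–200 uM (10 concentrations, duplicate), final DMSO 0.5% v/v. After formaldehyde fixation and Triton permeabilization, p53 was immunolabeled (sheep anti-p53, Cy5 secondary) with Hoechst 33342 nuclear counterstain, then imaged by high-content fluorescence microscopy.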

Experiment [9] is described as follows: APR_HepG2_CellCycleArrest_72hr: Apredica 72-hour HepG2 Assay for Cell Cycle Arrest (AID 2282914). To be noted: high-content imaging, actives raise or lower the signal. An outline of the steps: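 HepG2 cells were exposed to compounds at 0.39–200 uM (0.5% v/v DMSO final, duplicates) for 72 hr, fixed in 3.7% formaldehyde, permeabilized and stained with Hoechst 33342. Nuclear DNA content was quantified by high-content imaging; gain or loss of signal was fitted bidirectionally against DMSO.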

Experiment [10] in a line: APR_HepG2_CellLoss_72hr: Apredica 72-hour HepG2 Assay for Cell Loss (AID 2282915). The settings on record: high-content imaging. As to the method:
APR_HepG2_72hr is a cell-based, multiplexed-readout assay that uses HepG2, a human liver cell line, with measurements taken at 72 hours after chemical dosing in a 384-well plate.APR_HepG2_CellLoss_72hr is one of 10 assay component(s) measured or calculated from the APR_HepG2_72hr assay. It is designed to make measurements of cell number, a form of viability reporter, as detected with fluorescence intensity signals by HCS Fluorescent Imaging technology.Data from the assay component APR_HepG2_CellLoss_72hr was analyzed into 1 assay endpoint. This assay endpoint, APR_HepG2_CellLoss_72hr, was analyzed with bidirectional fitting relative to DMSO as the negative control and baseline of activity. Using a type of viability reporter, measures of all nuclear dna for gain or loss-of-signal activity can be used to understand the viability at the cellular-level. Furthermore, this assay endpoint can be referred to as a secondary readout, because this assay has produced multiple assay endpoints where this one serves a viability function. To generalize the intended target to other relatable targets, this assay endpoint is annotated to the cell cycle intended target family, where the subfamily is proliferation.
Cells were treated with dimethyl sulfoxide (DMSO) as a solvent control at a final concentration of 0.5% v/v or with compounds in DMSO with a resulting final DMSO concentration of 0.5% v/v. Compound treatment was done at concentrations of 0.39, 0.78, 1.56, 3.12, 6.24, 12.5, 25, 50, 100, and 200 uM in duplicate on each plate. Cells were treated with compounds for 1, 24, or 72 hr. Carbonyl […] m-chloro-phenylhydrazone (CCCP) and taxol were used as positive controls for mitochondrial function and cytoskeletal stability, respectively; DMSO served as the negative control for this experiment. Cells were fixed by the direct addition of 50 uL formaldehyde in Hank's Balanced Salt Solution (HBSS) to a final concentration of 3.7%. […] For mitochondrial membrane potential and mitochondrial measurements, pre-fixed cells were incubated with 50 uL of MitoTracker Red CMXRos (Invitrogen) at a concentration of 250 nM for 30 min before fixation. […] Cells were labeled for multiplexed imaging on two separate plates: a) Hoechst 33342, MitoTracker Red, phospho-histone H3, and alpha-tubulin, and b) Hoechst 33342, phospho-histone H2A.x, and c-Jun. A final rinse with HBSS (50 uL) was performed before analysis. The primary and secondary antibodies for the proteins were phospho-histone H3 (rabbit anti-phospho-histone H3 and FITC-donkey anti-rabbit IgG), phospho-histone H2A.x (mouse anti-phospho-histone H2A.x and FITC-donkey anti-mouse IgG), c-Jun (rabbit anti-phospho-c-Jun and Cy3-donkey anti-rabbit IgG), p53 (sheep anti-p53 and Cy5-donkey anti-sheep IgG), alpha-tubulin (mouse anti-alpha-tubulin and Cy5-donkey anti-mouse IgG). These antibodies are available as the CellCiphr HepG2 assay kit (Millipore).Digital images of each well were captured using a Cellomics ArrayScan VTI (Thermo Scientific Cellomics) (0.8 NA objective, 0.63x optical coupler, and XF-93 filter set) at 20x magnification. […] Six digital images were captured in each well and analyzed using BioApplication software, which was provided with the instrument. All images were analyzed using the Compartmental Analysis and Cell Cycle Analysis BioApplication software from Cellomics. The Cell Cycle BioApplication software used the nuclear stain to identify valid cells, to measure nuclear diameter, and to quantify DNA content. […]

The nature of experiment [11]: APR_HepG2_P-H2AX_72hr: Apredica 72-hour HepG2 Assay for H2AX Phosphorylation (AID 2282916).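 Further: phospho-histone H2A.x immunostain intensity per cell marking DNA damage.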 To be noted: imaging, actives raise or lower the signal. In short, it runs like this: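 Human hepatoma HepG2 cells are dosed across ten concentrations (0.39 to 200 uM, 0.5% v/v DMSO) and incubated 72 hr. Phospho-histone H2A.x is then detected by antibody staining alongside c-Jun and Hoechst, and quantified by automated fluorescence imaging.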

A short description of experiment [12]: APR_HepG2_MitoMembPot_72hr: Apredica 72-hour HepG2 Assay for Mitochondrial Membrane Potential (AID 2282917). The settings on record: imaging, actives raise or lower the signal. In short, it runs like this:
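HepG2 cells dosed 72 hr with compound at 0.39–200 uM in duplicate, 0.5% v/v DMSO final. Mitochondria stained with 250 nM MitoTracker Red CMXRos for 30 min before formaldehyde fixation, imaged by high-content fluorescence; bidirectional fit versus DMSO.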

A short description of experiment [13]: APR_HepG2_MitoticArrest_72hr: Apredica 72-hour HepG2 Assay for Mitotic Arrest (AID 2282918). To be noted: high-content imaging, actives raise or lower the signal. An outline of the steps: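 HepG2 cells were exposed for 72 hr to compound at 0.39–200 uM (10 concentrations, duplicate) in 0.5% v/v DMSO, fixed in 3.7% formaldehyde, immunostained for phospho-histone H3 with Hoechst 33342 and imaged by high-content fluorescence; bidirectional fits versus DMSO.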

Experiment [14] is described as follows: APR_HepG2_MicrotubuleCSK_72hr: Apredica 72-hour HepG2 Assay for Microtubule CSK Stabilty (AID 2282919). The settings on record: HepG2 microtubule cytoskeleton, high-content imaging, actives raise or lower the signal. An outline of the steps:
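HepG2, 72 hr cmpd exposure, 0.39–200 uM (10 pts, duplicate), 0.5% DMSO. 3.7% formaldehyde fix, 0.5% Triton perm, anti-alpha-tubulin/Cy5 plus Hoechst. HCS fluorescence intensity; bidirectional fit vs DMSO baseline; taxol as positive control.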

The nature of experiment [15]: APR_HepG2_P-H2AX_24hr: Apredica 24-hour HepG2 Assay for H2AX Phosphorylation (AID 2282920). To be noted: high-content imaging, actives raise or lower the signal. In short, it runs like this:
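HepG2 human liver cells were exposed for 24 hr to compounds at 0.39–200 uM in duplicate, with 0.5% v/v DMSO final. Fixed cells were immunostained for phospho-histone H2A.x plus Hoechst 33342, imaged by HCS fluorescence, and fitted bidirectionally against DMSO.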

Experiment [16] is described as follows: APR_HepG2_StressKinase_72hr: Apredica 72-hour HepG2 Assay for Stress Kinase (AID 2282921). The settings on record: HepG2 stress kinase (phospho-c-Jun) imaging, actives raise or lower the signal. In short, it runs like this: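 After a 72 h compound treatment spanning 0.39 to 200 uM, formaldehyde-fixed cells are labelled for phosphorylated c-Jun and nuclei, imaged by automated fluorescence microscopy, and activity is fitted in both directions relative to DMSO controls.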

A short description of experiment [17]: APR_HepG2_StressKinase_24hr: Apredica 24-hour HepG2 Assay for Stress Kinase (AID 2282922). To be noted: HepG2 stress kinase (phospho-c-Jun) imaging, actives raise or lower the signal. In short, it runs like this: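 Read-out: phospho-c-Jun immunofluorescence (Cy3 secondary) quantified by high-content imaging at 20x, nuclei defined by Hoechst 33342. Human HepG2 liver cells dosed 24 hr, 0.39–200 uM, DMSO 0.5% v/v; gain or loss of signal fitted relative to DMSO.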

The nature of experiment [18]: APR_HepG2_p53Act_72hr: Apredica 72-hour HepG2 Assay for p53 Activation (AID 2282923).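 Further: average cellular p53 protein immunofluorescence intensity in HepG2 cells.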 The settings on record: high-content imaging, actives raise or lower the signal. An outline of the steps: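 Imaging-based endpoint: after 72 hr compound exposure (up to 200 uM, 0.5% DMSO), fixed and permeabilized monolayers were labelled with anti-p53 antibody and imaged; signal change in either direction was fitted relative to DMSO controls.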

A short description of experiment [19]: APR_HepG2_MitoMass_72hr: Apredica 72-hour HepG2 Assay for Mitochondrial Mass (AID 2282924).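 Further: MitoTracker Red CMXRos stain intensity per cell imaged as mitochondrial mass.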 To be noted: high-content imaging, actives raise or lower the signal. An outline of the steps:
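Read-out: MitoTracker Red fluorescence intensity from automated imaging (20x, six fields per well) in human HepG2 liver cells. Dosing ran 72 hr, 0.39–200 uM, 0.5% DMSO; bidirectional curve fitting versus DMSO baseline.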

Experiment [20] is described as follows: APR_HepG2_NuclearSize_72hr: Apredica 72-hour HepG2 Assay for Nuclear Size (AID 2282925). The settings on record: high-content imaging, actives raise or lower the signal. In short, it runs like this:
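Read-out: nuclear diameter from Hoechst 33342 images (ArrayScan, 20x, six fields/well), via cell-cycle image analysis. HepG2 were dosed 0.39–200 uM for 72 hr in 0.5% DMSO. Bidirectional fit relative to DMSO.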

Only a part is listed here, and it is no random draw. Activity calls are given as the source filed them. How the source made its calls: active means hit-call score of the fitted dose curve at least 0.9, where 1 is the maximum; inactive means score below 0.9.

As usually defined, the AC50 is the concentration giving half of the maximal activity seen.

Regarding `Cc1ccc([N+](=O)[O-])cc1[N+](=O)[O-]`, the result in [1], in [2], in [3], in experiment [4], in experiment [5] and in experiment [6] was inactive. Further, the molecule was called inactive in experiment [7], in experiment [8], in [9], in experiment [10], in [11] and in experiment [12]. The result in experiment [13], in experiment [14], in [15], in experiment [16], in [17] and in experiment [18] was inactive. Further, the call in experiment [19] and in [20] was inactive.

On to `Cc1cccc([N+](=O)[O-])c1[N+](=O)[O-]`, for which the result in experiment [1], in [2], in experiment [3], in experiment [4], in [5] and in experiment [6] was inactive. In addition, the molecule was called inactive in experiment [7], in experiment [12], in [14], in experiment [15], in experiment [16] and in experiment [17]. The molecule was classed as inactive in experiment [20]. The half-maximal activity concentration (AC50) was active: 76.5 µM in experiment [8]; active: 72.4 µM in experiment [9]; active: 77.3 µM in experiment [10]; active: 76.3 µM in experiment [11]; active: 68.2 µM in experiment [13]; active: 68.4 µM in experiment [18]. In addition, in [19], the AC50 is active: 122 µM.
